{"source": "patent US9637768B2", "about": "“Method for preparing sialic acid derivative” (priority 2013, dated 2017)", "key": {"[1]": {"system": "CC(=O)N[C@H]1[C@H]([C@H](O)[C@H](O)CO)O[C@](OP(=O)(O)OC[C@H]2O[C@@H](n3ccc(N)nc3=O)[C@H](O)[C@@H]2O)(C(=O)O)C[C@@H]1O", "experiment": "purified protein, by the assay type", "settings": "other: wild type"}, "[2]": {"system": "OC[C@H]1O[C@@H](O[C@H]2[C@H](O)[C@@H](O)C(O)O[C@@H]2CO)[C@H](O)[C@@H](O)[C@H]1O", "experiment": "purified protein, by the assay type", "settings": "other: wild type"}}, "data": [{"substance": "Photobacterium damselae (ATCC29690) α-2,6-sialyltransferase (α2,6PdST), wild type (Photobacterium damselae)", "values": [{"measurement": "Km", "setting": "[1]", "result": 5.47, "unit": "mM"}, {"measurement": "Km", "setting": "[2]", "result": 9.03, "unit": "mM"}]}]}
